Results taken from patent publication US20250312338A1, “TREATMENT OF NEUROLOGICAL DISORDERS” (Praxis Precision Medicines, Inc., priority 2022, published 2025).

By UniProt entry, the sequences of proteins in these tests, tags left out.
UniProt Q9UQD0, whole entry: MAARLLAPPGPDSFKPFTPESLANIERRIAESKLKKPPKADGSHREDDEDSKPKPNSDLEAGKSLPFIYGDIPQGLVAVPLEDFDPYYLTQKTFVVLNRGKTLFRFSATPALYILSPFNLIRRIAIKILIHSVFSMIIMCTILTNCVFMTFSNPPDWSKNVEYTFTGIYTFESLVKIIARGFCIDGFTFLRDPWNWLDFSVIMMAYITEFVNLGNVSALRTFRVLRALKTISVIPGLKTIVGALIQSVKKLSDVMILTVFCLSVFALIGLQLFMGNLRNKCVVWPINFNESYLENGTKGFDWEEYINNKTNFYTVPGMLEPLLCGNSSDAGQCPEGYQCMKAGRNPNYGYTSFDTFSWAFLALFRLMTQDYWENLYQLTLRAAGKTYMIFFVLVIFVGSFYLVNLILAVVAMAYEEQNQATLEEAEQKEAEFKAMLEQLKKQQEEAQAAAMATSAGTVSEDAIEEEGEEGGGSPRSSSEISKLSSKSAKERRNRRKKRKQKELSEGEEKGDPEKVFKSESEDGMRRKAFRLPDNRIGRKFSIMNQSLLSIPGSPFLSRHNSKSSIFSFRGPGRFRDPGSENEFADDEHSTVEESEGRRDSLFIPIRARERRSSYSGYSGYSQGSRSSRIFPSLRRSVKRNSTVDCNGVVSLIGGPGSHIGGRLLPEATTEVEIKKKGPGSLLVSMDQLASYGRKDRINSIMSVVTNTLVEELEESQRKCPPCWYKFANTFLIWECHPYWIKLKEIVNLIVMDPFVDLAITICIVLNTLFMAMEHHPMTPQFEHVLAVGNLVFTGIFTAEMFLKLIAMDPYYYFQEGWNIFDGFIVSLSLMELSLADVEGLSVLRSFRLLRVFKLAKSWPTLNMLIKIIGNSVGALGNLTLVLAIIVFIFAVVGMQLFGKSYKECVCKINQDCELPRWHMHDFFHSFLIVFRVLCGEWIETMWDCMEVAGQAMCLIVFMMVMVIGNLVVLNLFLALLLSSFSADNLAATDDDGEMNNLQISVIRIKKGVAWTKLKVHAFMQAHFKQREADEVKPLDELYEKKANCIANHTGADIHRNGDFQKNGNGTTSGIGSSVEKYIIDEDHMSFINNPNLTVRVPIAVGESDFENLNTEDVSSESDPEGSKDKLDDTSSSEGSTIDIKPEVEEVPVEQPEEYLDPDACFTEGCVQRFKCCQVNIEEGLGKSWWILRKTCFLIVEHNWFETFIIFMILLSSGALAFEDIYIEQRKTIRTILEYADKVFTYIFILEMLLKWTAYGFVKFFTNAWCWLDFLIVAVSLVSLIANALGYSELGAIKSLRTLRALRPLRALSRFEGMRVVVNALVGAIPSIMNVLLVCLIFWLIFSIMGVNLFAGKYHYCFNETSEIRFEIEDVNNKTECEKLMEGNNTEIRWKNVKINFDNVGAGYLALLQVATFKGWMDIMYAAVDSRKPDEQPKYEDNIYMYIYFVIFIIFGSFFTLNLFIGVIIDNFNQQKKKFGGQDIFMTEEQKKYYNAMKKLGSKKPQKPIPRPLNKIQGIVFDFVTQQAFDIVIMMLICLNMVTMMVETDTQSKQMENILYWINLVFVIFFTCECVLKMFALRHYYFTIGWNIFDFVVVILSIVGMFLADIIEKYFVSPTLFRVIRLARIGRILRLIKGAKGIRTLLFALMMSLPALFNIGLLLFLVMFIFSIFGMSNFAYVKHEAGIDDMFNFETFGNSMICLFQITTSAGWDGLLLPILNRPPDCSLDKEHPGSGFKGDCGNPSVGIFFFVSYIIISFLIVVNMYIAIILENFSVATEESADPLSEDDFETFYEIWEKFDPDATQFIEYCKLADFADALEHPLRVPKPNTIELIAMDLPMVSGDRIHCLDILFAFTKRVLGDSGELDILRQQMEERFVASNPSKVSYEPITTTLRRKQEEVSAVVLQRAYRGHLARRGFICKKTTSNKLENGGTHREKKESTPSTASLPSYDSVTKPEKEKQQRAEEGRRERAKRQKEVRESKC

What was measured:
CA1 pyramidal neurons = experiment: Intrinsic excitability assay (evoked action potentials), brain slice whole-cell current clamp; format: cell-based, mouse
Protocol: Three hundred micrometer coronal hippocampal slices were cut on a vibratome (VT1200; Leica) for whole-cell patch-clamp experiments. Slices were incubated for a minimum of 1 hour in the incubation solution at room temperature before patching.
Brain slices were transferred to a submerged recording chamber on an upright microscope (Slicescope Pro 1000; Scientifica) and were perfused (2 ml/min) with the extracellular artificial cerebral spinal fluid (aCSF) recording solution at 32° C. […]
Studies were performed using whole-cell current clamp recording mode. […] Once baseline action potential firing was determined in the presence of the extracellular aCSF recording solution (baseline), Compound 1 (300 nM or 3 μM) was washed onto the slice for 5 minutes before repeating the action potential generating protocol (FIG. 1B).
Data were analyzed using Axograph X software. Individual action potentials were identified and counted using a +50 mV amplitude threshold relative to pre-event baseline. […] Action potential amplitudes were determined relative to the pre-event baseline at the +200 pA current injection step for each cell. […] For statistical comparisons between groups, the total number of action potentials fired per cell was calculated. […]

human NaV1.6 [1] = target: T1, human NaV1.6 (Homo sapiens, UniProt Q9UQD0); experiment: Late (persistent) INa block, ATX-II activated, PatchXpress patch clamp; format: cell-based; conditions: hNaV1.6, all assay conditions
T1 construct: HEK-293 cell lines stably expressing either human NaV1.6 (NP_055006); expressed in transfected cells

human NaV1.6 [2] = target: T1, human NaV1.6; experiment: Peak INa use dependent block (UDB-10 Hz), PatchXpress patch clamp; format: cell-based; conditions: hNaV1.6

## NC(=O)N1c2ccccc2C=Cc2ccccc21 [Carbamazepine]
CA1 pyramidal neurons; 0.3 μmol/L Compound 1, 45 μmol/L CBZ, +200 pA current injection
  AP amplitude: more pronounced reduction
CA1 pyramidal neurons; at peak INa VDB IC50 equivalents: 0.3 μmol/L Compound 1, 45 μmol/L CBZ
  intrinsic excitability as number of evoked APs: more robust reduction
Human NaV1.6 [1]
  preference for persistent INa relative to peak INa (in words): no preference for persistent INa
Human NaV1.6 [2]
  Ratio to Peak INa (TB) (TB / UDB-10 Hz): 1.6
